Data taken from ChEMBL document CHEMBL1938337, “Discovery of novel, potent, and selective inhibitors of 3-phosphoinositide-dependent kinase (PDK1)” (J Med Chem, 2011).

Sequences of proteins named here, by UniProt entry; tags and fusion partners are left off.
UniProt P08684, whole entry: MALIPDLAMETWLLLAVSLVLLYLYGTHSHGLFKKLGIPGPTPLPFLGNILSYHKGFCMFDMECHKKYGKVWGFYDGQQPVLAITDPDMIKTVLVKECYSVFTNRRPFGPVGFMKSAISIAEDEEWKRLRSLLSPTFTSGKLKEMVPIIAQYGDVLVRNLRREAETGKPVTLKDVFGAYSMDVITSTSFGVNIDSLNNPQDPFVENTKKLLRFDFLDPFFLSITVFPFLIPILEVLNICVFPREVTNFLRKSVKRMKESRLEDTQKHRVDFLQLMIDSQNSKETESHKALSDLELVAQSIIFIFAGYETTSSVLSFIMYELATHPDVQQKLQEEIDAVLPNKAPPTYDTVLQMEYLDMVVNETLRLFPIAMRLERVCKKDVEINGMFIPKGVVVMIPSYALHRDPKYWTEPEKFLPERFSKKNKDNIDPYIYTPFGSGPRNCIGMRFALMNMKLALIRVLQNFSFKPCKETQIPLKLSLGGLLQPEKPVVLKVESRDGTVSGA

Tests used:
CYP3A4 = CYP3A4 (Homo sapiens, UniProt P08684); experiment: Inhibition of CYP3A4 at 3 uM; type: ADME
CYP3A4 (Homo sapiens) [1] = experiment: Inhibition of CYP3A4 at 3 uM
CYP3A4 (Homo sapiens) [2] = experiment: Inhibition of CYP3A4 at 3 uM; remark: listed apart in the source
CYP3A4 (Homo sapiens) [3] = experiment: Inhibition of CYP3A4 at 3 uM; remark: listed apart in the source
[4] = Ratio of EC50 for antiproliferation of human H460 cells to IC50 for inhibition of PDK1-mediated AKT1 phosphorylation at T308 in human H460 cells
[5] = Ratio of EC50 for antiproliferation of human A549 cells to IC50 for inhibition of PDK1-mediated AKT1 phosphorylation at T308 in human A549 cells

inhibition at 3 µM (CYP3A4)	inhibition at 3 µM (CYP3A4 (Homo sapiens) [1])	inhibition at 3 µM (CYP3A4 (Homo sapiens) [2])	inhibition at 3 µM (CYP3A4 (Homo sapiens) [3])	Structure (SMILES)	Ratio [4]	Ratio [5]
85%	85%	85%	85%	CC(C)n1cc(C(=O)c2cncc(N[C@@H]3CCC[C@@H]3c3ccc(F)cc3)n2)c2c(N)ncnc21	–	–
23%	23%	23%	23%	CC(C)n1cc(C(=O)c2cncc(N[C@@H]3CCO[C@@H]3c3ccc(F)cc3)n2)c2c(N)ncnc21	–	–
27%	27%	27%	27%	CC(C)n1cc(C(=O)c2cncc(N[C@@H]3CCN[C@@H]3c3ccc(F)cc3)n2)c2c(N)ncnc21	–	–

Continued, molecule first:

Structure (SMILES)	inhibition at 3 µM (CYP3A4)	inhibition at 3 µM (CYP3A4 (Homo sapiens) [1])	inhibition at 3 µM (CYP3A4 (Homo sapiens) [2])	inhibition at 3 µM (CYP3A4 (Homo sapiens) [3])	Ratio [4]	Ratio [5]
CC(=O)N1CC[C@@H](Nc2cncc(C(=O)c3cn(C(C)C)c4ncnc(N)c34)n2)[C@H]1c1ccc(F)cc1	37%	37%	37%	37%	12	28
CC(C)n1cc(C(=O)c2cncc(N[C@@H]3CCN(C=O)[C@@H]3c3ccc(F)cc3)n2)c2c(N)ncnc21	38%	38%	38%	38%	6	36
CC(=O)N1CC[C@@H](Nc2cncc(C(=O)c3cn(C(C)C)c4ncnc(N)c34)n2)[C@H]1c1ccccc1	54%	54%	54%	54%	5	17
